Test results as given in PubChem BioAssay AID652268 (The Scripps Research Institute Molecular Screening Center, 2013).
The list shows a part of the results, in another mix than the full data. Activity calls are given as the source filed them. Cut-off read from the data, not from the text of the source: active = activation above about 1.3%; inactive = the rest.

Test: nonspecific cAMP agonists in parental HEK-CNG cells, counter-screen for GalR3 antagonist project, cell-based, fluorescence, high throughput (AID 652268)
Settings: HEK293-CNG parental cells, cAMP membrane potential fluorescence; at 3 µM; hits give high values; normalised: DMSO wells 0%, forskolin wells 100%

| SMILES | activation |
| --- | --- |
| CCc1nc2c(n1)c1c(non1O)c1c2no[n+]1[O-] | inactive: 0.34% |
| Cc1ccc(NP(=O)(Oc2ccccc2)Oc2ccccc2)nc1 | inactive: 0% |
| CC1(CBr)Cn2c(nc3ccccc3c2=O)S1 (stereo not drawn) | inactive: 0.13% |
